The values below are quoted from earlier work in patent publication US6100254A, “Inhibitors of protein tyrosine kinases” (Board of Regents, The University of Texas System, priority 1997, dated 2000).

The conditions of this data set: in vivo; cited from earlier work.

For `O=C(O)CCCc1ccc(N(CCCl)CCCl)cc1` [Chlorambucil, 4-[bis(2-chlorethyl)amino]benzenebutanoic acid], the oral absorption entry is “rapidly and completely absorbed”.
